Data from patent EP4840852A1, “DIPHENYLTRIAZINE COMPOUND, PREPARATION METHOD THEREFOR AND USE THEREOF” (dated 2026).
Where “and” joins values, the source holds several entries; their conditions need not be identical. Identical values can stand only once. Marks after values point to notes of the source that are not given here.

Tests used:
TA98 strain = test: Bacterial reverse mutation assay with 6-well plate, TA98
TA100 strain = test: Bacterial reverse mutation assay with 6-well plate, TA100; conditions: TA100+S9
[1] = TA98-S9, positive control 0.2 µg/well
[2] = TA98-S9, positive control 0.2 µg/well (Table 8)
[3] = TA98+S9, positive control 0.6 µg/well
[4] = TA98+S9, positive control 0.6 µg/well (Table 8)
[5] = positive control 0.6 µg/well (Table 9)

Compound	Background lawn (TA98 strain; [1])	Reverse mutation colony Mean (TA98 strain; [1])	Reverse mutation colony Number per well (TA98 strain; [1])	Background lawn (TA98 strain; [2])	Reverse mutation colony Mean (TA98 strain; [2])	Reverse mutation colony Number per well (TA98 strain; [2])	Background lawn (TA98 strain; [3])	Reverse mutation colony Mean (TA98 strain; [3])	Reverse mutation colony Number per well (TA98 strain; [3])	Background lawn (TA98 strain; [4])	Reverse mutation colony Number per well (TA98 strain; [4])	Background lawn (TA100 strain; positive control 0.6 µg/well)	Reverse mutation colony Mean (TA100 strain; positive control 0.6 µg/well)	Reverse mutation colony Number per well (TA100 strain; positive control 0.6 µg/well)	Background lawn (TA100 strain; [5])	Reverse mutation colony Mean (TA100 strain; [5])	Reverse mutation colony Number per well (TA100 strain; [5])
O=[N+]([O-])c1ccc2c(c1)Cc1ccccc1-2	T0	114. 0*	112 and 116	T0	114. 0 *	112 and 116	–	–	–	–	–	–	–	–	–	–	–
Nc1ccc2cc3ccccc3cc2c1	–	–	–	–	–	–	T0	348. 0*	344 and 352	T0	344 and 352	T0	454	444 and 464	T0	454 ·	444 and 464
